Values of other authors as cited in patent US7795302B2, “Use of compositions for treating rosacea” (The Regents of the University of Michigan, priority 2001, dated 2010).

System: NF-KB

CCCCC/C=C\C/C=C\C/C=C\C/C=C\CCCCOP(=O)(F)OC (stereo not shown)
effect on TNF-induced NF-KB activation: inhibited
